Molecules are shown by their SMILES.

Chains of the proteins cited; added tags and fusions are not shown. Lines headed by an entry give the natural chain unless they say otherwise; changes in a name come on top.
UniProt P35372, whole entry, looked up: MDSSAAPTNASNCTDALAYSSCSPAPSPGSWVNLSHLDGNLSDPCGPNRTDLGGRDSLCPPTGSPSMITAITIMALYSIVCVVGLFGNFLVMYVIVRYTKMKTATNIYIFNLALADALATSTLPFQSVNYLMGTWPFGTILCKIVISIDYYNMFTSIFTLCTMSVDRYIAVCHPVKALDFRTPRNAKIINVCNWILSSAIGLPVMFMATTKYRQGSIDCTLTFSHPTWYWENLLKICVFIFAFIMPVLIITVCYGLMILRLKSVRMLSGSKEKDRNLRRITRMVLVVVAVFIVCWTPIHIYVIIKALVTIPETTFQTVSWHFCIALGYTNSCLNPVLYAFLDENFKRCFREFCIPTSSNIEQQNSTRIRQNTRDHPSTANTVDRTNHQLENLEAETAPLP
UniProt P41146: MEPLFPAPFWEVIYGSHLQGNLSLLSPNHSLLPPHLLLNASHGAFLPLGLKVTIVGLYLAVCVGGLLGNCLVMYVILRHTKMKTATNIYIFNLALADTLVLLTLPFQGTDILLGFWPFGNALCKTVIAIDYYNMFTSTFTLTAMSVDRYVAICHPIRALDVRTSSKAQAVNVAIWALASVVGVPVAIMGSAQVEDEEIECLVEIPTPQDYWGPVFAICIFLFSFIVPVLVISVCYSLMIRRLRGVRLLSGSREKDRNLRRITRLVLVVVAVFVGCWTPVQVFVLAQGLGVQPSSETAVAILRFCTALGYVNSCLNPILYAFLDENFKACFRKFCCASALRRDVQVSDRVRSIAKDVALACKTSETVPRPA

The target in the first experiment is Mu-type opioid receptor (Homo sapiens, UniProt P35372). Put plainly: Human Mu-Opioid Peptide (hMOP) Receptor Binding Assay.
One may read the Ki as a measure of affinity in units of concentration, obtained from inhibition or displacement. `CN(C)[C@]1(c2ccccc2)CC[C@]2(CC1)CN(c1cnc(C#N)nc1)C(=O)N2CC1CC1` showed a Ki of 0.29 µM.
On the same count and under the same terms, next, `CN(C)[C@]1(c2ccccc2)CC[C@]2(CC1)CN(c1ncc(C#N)cn1)C(=O)N2CC1CCC1`: 0.0295 µM; `COc1cc(C#N)ccc1N1C[C@]2(CC[C@](c3ccccc3)(N(C)C)CC2)N(CC2CCC2)C1=O`: 0.0905 µM.
The same measure, in the same setting: in the case of `CN(C)[C@]1(c2ccccc2)CC[C@]2(CC1)CN(c1cnc(NC3CCOCC3)nc1)C(=O)N2` it was 5.49 µM.
Turning to `Cc1cc(-c2ccccn2)ncc1N1C[C@]2(CC[C@](c3ccccc3)(N(C)C)CC2)NC1=O`, the Ki came out at 1.58 µM.
For `CN(C)C(=O)CN1C(=O)N(c2ccnc(C#N)n2)C[C@]12CC[C@](c1ccccc1)(N(C)C)CC2`, affinity was put at a Ki of 0.028 µM.
Same read-out and setting: next, `CN[C@]1(c2ccccc2)CC[C@]2(CC1)CN(c1ccc(S(C)(=O)=O)cc1)C(=O)N2CC1CC1`: 0.165 µM.
Same read-out and setting: in the case of `CN(C)[C@]1(c2ccccc2)CC[C@]2(CC1)CN(c1ccc(C(N)=O)cc1)C(=O)N2CC1(O)CCC1` it was 0.0505 µM; in that of `CN(C)[C@]1(c2ccccc2)CC[C@]2(CC1)CN(c1cccc3[nH]ccc13)C(=O)N2`, 2.21 µM.
The same measure, in the same setting: in the case of `COCCN1C(=O)N(c2ccnc(C#N)n2)C[C@]12CC[C@](c1ccccc1)(N(C)C)CC2` it was 0.063 µM; in that of `CN(C)[C@]1(c2ccccc2)CC[C@]2(CC1)CN(c1cnc(C#N)nc1)C(=O)N2CC1(C#N)CCC1`, 0.0795 µM.
For `CN(C)[C@]1(c2ccccc2)CC[C@]2(CC1)CN(c1cnc(NC(=O)c3ccccc3)nc1)C(=O)N2`, affinity was put at a Ki of 5.9 µM.
Consider `CN(C)[C@]1(c2ccccc2)CC[C@]2(CC1)CN(c1cnc(-c3ccc(C#N)cc3)nc1)C(=O)N2`, for which the Ki was determined as 3.75 µM.
Same read-out and setting: in the case of `CN(C)[C@]1(c2ccccc2)CC[C@]2(CC1)CN(c1ccccc1F)C(=O)N2` it was 1.62 µM; in that of `CN(C)[C@]1(c2cccs2)CC[C@]2(CC1)CN(c1ccccc1CS(C)(=O)=O)C(=O)N2`, 1.24 µM; in that of `COCCCN1C(=O)N(c2cnc(C#N)nc2)C[C@]12CC[C@](c1ccccc1)(N(C)C)CC2`, 0.135 µM.
Still for that read-out and setting: in the case of `CN(C)[C@]1(c2ccccc2)CC[C@]2(CC1)CN(c1cc(S(C)(=O)=O)ccc1C#N)C(=O)N2CC1CCC1` it was 0.099 µM; in that of `CN(C)[C@]1(c2ccccc2)CC[C@]2(CC1)CN(c1ccc3c(c1)NCC3)C(=O)N2`, 1.68 µM; in that of `CN(C)[C@]1(c2ccccc2)CC[C@]2(CC1)CN(c1ccccc1C#N)C(=O)N2CC1CCC1`, 0.067 µM.
The same measure, in the same setting: in the case of `CN1CCN(c2ncc(N3C[C@]4(CC[C@](c5ccccc5)(N(C)C)CC4)N(CC4(O)CCC4)C3=O)cn2)CC1` it was 0.006 µM.
Compound `CN(C)[C@]1(c2ccccc2)CC[C@]2(CC1)CN(c1ccc(C#N)cc1F)C(=O)N2` registered a Ki of 3.5 µM.
Still for that read-out and setting: next, `CN(C)[C@]1(c2ccccc2)CC[C@]2(CC1)CN(c1cnc(O)nc1)C(=O)N2CC1(O)CCC1`: 0.036 µM.
Still for that read-out and setting: in the case of `CN[C@]1(c2ccccc2)CC[C@]2(CC1)CN(c1cnc(N3CCNCC3)nc1)C(=O)N2CC1(O)CCC1` it was 0.001 µM; in that of `CN[C@]1(c2ccccc2)CC[C@]2(CC1)CN(c1cnc(C(F)(F)F)nc1)C(=O)N2CC1CCC1`, 0.076 µM.
The same measure, in the same setting: next, `CN[C@]1(c2ccccc2)CC[C@]2(CC1)CN(c1ccc(C(F)(F)F)cc1S(C)(=O)=O)C(=O)N2CC1CCC1`: 0.0455 µM; `Cc1cc(C(N)=O)cnc1N1C[C@]2(CC[C@](c3ccccc3)(N(C)C)CC2)NC1=O`: 5.09 µM; `CN(C)[C@]1(c2ccccc2)CC[C@]2(CC1)CN(c1cnc(S(C)(=O)=O)nc1C#N)C(=O)N2CC1CCC1`: 0.046 µM.
The compound `CN(C)[C@]1(c2ccccc2)CC[C@]2(CC1)CN(c1cnc(C(N)=O)nc1)C(=O)N2CC1(O)CCC1` had a Ki of 0.0044 µM.
The same measure, in the same setting: next, `CN(C)[C@]1(c2ccccc2)CC[C@]2(CC1)CN(c1ccc(-c3ccncc3)s1)C(=O)N2`: 1.35 µM; `CN(C)[C@]1(c2ccccc2)CC[C@]2(CC1)CN(c1cccc(C#N)c1)C(=O)N2CC1CCC1`: 0.235 µM.
For the compound `CN(C)[C@]1(c2ccccc2)CC[C@]2(CC1)CN(c1ccccc1C(N)=O)C(=O)N2CC1(O)CCC1`, the affinity, expressed as Ki, was 0.026 µM.
The same measure, in the same setting: next, `CN(C)[C@]1(c2ccccc2)CC[C@]2(CC1)CN(c1cccc(C(F)(F)F)c1)C(=O)N2`: 2.44 µM.
On the same count and under the same terms, next, `COc1nc(C#N)ncc1N1C[C@]2(CC[C@](c3ccccc3)(N(C)C)CC2)N(CC2CCC2)C1=O`: 0.35 µM; `Cc1cnccc1N1C[C@]2(CC[C@](c3ccccc3)(N(C)C)CC2)NC1=O`: 4.79 µM.
Still for that read-out and setting: in the case of `CN(C)[C@]1(c2ccccc2)CC[C@]2(CC1)CN(c1cncnc1)C(=O)N2CC1(O)CCC1` it was 0.063 µM.
As for `CN(C)[C@]1(c2ccccc2)CC[C@]2(CC1)CN(c1cnc(N3CCOCC3)cc1C#N)C(=O)N2`, the Ki is 4.78 µM.
The same measure, in the same setting: in the case of `CN(C)[C@]1(c2ccccc2)CC[C@]2(CC1)CN(c1cnc(NCc3ccccc3)nc1)C(=O)N2` it was 2.54 µM.
Consider `CN(C)[C@]1(c2ccccc2)CC[C@]2(CC1)CN(c1cnc(-c3cccc4c3CC(=O)N4)cc1C#N)C(=O)N2`, for which the affinity, expressed as Ki, was 1.24 µM.
Compound `Cc1cc(C(F)(F)F)ncc1N1C[C@]2(CC[C@](c3ccccc3)(N(C)C)CC2)N(CC(=O)N(C)C)C1=O` gave an inhibition constant Ki of 1.97 µM.
Same read-out and setting: in the case of `CN[C@]1(c2ccccc2)CC[C@]2(CC1)CN(c1ccc(C#N)cc1OC)C(=O)N2CC1CCC1` it was 0.096 µM; in that of `CN[C@]1(c2ccccc2)CC[C@]2(CC1)CN(c1cnc(C#N)nc1)C(=O)N2CC1(O)CCC1`, 0.037 µM; in that of `CN(C)[C@]1(c2ccccc2)CC[C@]2(CC1)CN(c1cnc(N3CCC3)c(C(F)(F)F)c1)C(=O)N2`, 1.97 µM.
On the same count and under the same terms, in the case of `CN(C)S(=O)(=O)c1ccc(N2C[C@]3(CC[C@](c4ccccc4)(N(C)C)CC3)N(CC3CCC3)C2=O)c(C(F)(F)F)c1` it was 0.235 µM; in that of `CN[C@]1(c2ccccc2)CC[C@]2(CC1)CN(c1ccc(C#N)cc1OC)C(=O)N2CC1(O)CCC1`, 0.026 µM; in that of `CN[C@]1(c2ccccc2)CC[C@]2(CC1)CN(c1cnc(N3CCN(C)CC3)nc1)C(=O)N2CC1(O)CCC1`, 0.003 µM.
On the same count and under the same terms, in the case of `CN(C)[C@]1(c2ccccc2)CC[C@]2(CC1)CN(c1ccc(F)c(C#N)c1)C(=O)N2CC1CCC1` it was 0.77 µM; in that of `CCN(C)[C@]1(c2ccccc2)CC[C@]2(CC1)CN(c1cnc(C(F)(F)F)nc1)C(=O)N2CC1CCC1`, 0.73 µM.
Regarding `Cc1cc(N2CCNC(=O)C2)ncc1N1C[C@]2(CC[C@](c3ccccc3)(N(C)C)CC2)NC1=O`, the Ki is 2.06 µM.
Still for that read-out and setting: in the case of `COCCN1C(=O)N(c2ncc(C#N)cn2)C[C@]12CC[C@](c1ccccc1)(N(C)C)CC2` it was 0.0295 µM.
For the compound `CN(C)[C@]1(c2cccc(F)c2)CC[C@]2(CC1)CN(c1ccccc1CS(C)(=O)=O)C(=O)N2`, the Ki came out at 6.61 µM.
Still for that read-out and setting: in the case of `Cc1cc(C(F)(F)F)ncc1N1C[C@]2(CC[C@](c3nc4ccccc4n3C)(N(C)C)CC2)NC1=O` it was 24 µM; in that of `CCN(CCO)C(=O)c1ccc(N2C[C@]3(CC[C@](c4ccccc4)(N(C)C)CC3)N(CC3CCC3)C2=O)cc1`, 0.0073 µM; in that of `CN(C)[C@]1(c2ccccc2)CC[C@]2(CC1)CN(c1ccc(C(F)(F)F)cc1F)C(=O)N2`, 6.7 µM.

The target of the next experiment is Nociceptin receptor (Homo sapiens, UniProt P41146). Put plainly: Human Nociceptin/Orphanin FQ Peptide (hNOP) Receptor Binding Assay.
The compound `CN(C)[C@]1(c2ccccc2)CC[C@]2(CC1)CN(c1ncc(C#N)cn1)C(=O)N2CC1CCC1` returned a Ki of 0.0008 µM.
On the same count and under the same terms, in the case of `Cc1cc(C(F)(F)F)ncc1N1C[C@]2(CC[C@](c3cccc(O)c3)(N(C)C)CC2)NC1=O` it was 0.029 µM.
The same measure, in the same setting: next, `CN(C)[C@]1(c2ccccc2)CC[C@]2(CC1)CN(c1cccc3nc(O)oc13)C(=O)N2`: 0.037 µM; `CN(C)C(=O)c1ccc(N2C[C@]3(CC[C@](c4ccccc4)(N(C)C)CC3)N(CC3CCC3)C2=O)cc1`: 0.0006 µM.
Turning to `CN[C@]1(c2ccccc2)CC[C@]2(CC1)CN(c1ccccc1C#N)C(=O)N2CC1(O)CCC1`, the affinity, expressed as Ki, was 0.036 µM.
Same read-out and setting: next, `CN(C)[C@]1(c2ccccc2)CC[C@]2(CC1)CN(c1cnc(C(=O)N3CCNCC3)nc1)C(=O)N2`: 0.01 µM; `CCN(C)[C@]1(c2ccccc2)CC[C@]2(CC1)CN(c1cnc(C#N)nc1OC)C(=O)N2CC1CCC1`: 0.0062 µM; `CN(C)[C@]1(c2ccccc2)CC[C@]2(CC1)CN(c1ccc(S(C)(=O)=O)cc1C#N)C(=O)N2CC1CCC1`: 0.0006 µM.
Same read-out and setting: in the case of `CN(C)[C@]1(c2ccccc2)CC[C@]2(CC1)CN(c1ncc(C(N)=O)cn1)C(=O)N2CC1CCC1` it was 0.0042 µM; in that of `CN(C)[C@]1(c2ccccc2)CC[C@]2(CC1)CN(c1cnc(N3CCNC(=O)C3)nc1)C(=O)N2`, 0.026 µM; in that of `CN(C)[C@]1(c2ccccc2)CC[C@]2(CC1)CN(c1cnc(-c3ccc(C(N)=O)cc3)nc1)C(=O)N2`, 0.002 µM.
Consider `CN(C)[C@]1(c2ccccc2)CC[C@]2(CC1)CN(c1cnc(NC(=O)C3CC3)nc1)C(=O)N2`, for which the affinity, expressed as Ki, was 0.028 µM.
Still for that read-out and setting: in the case of `CN(C)[C@]1(c2ccccc2)CC[C@]2(CC1)CN(c1cnc(N3CCN(S(C)(=O)=O)CC3)nc1)C(=O)N2` it was 0.004 µM; in that of `CN(C)[C@]1(c2ccccc2)CC[C@]2(CC1)CN(c1cnc(C#N)nc1)C(=O)N2CC1(O)CCC1`, 0.0014 µM.
Still for that read-out and setting: in the case of `CN(C)[C@]1(c2ccccc2)CC[C@]2(CC1)CN(c1cnc(-c3ccccc3C#N)nc1)C(=O)N2` it was 0.004 µM; in that of `CN(C)[C@]1(c2ccccc2)CC[C@]2(CC1)CN(c1cccc3c1CC(=O)N3)C(=O)N2`, 0.044 µM; in that of `CN(C)[C@]1(c2ccccc2)CC[C@]2(CC1)CN(c1cnc(N3CCOCC3)nc1)C(=O)N2CC1(O)CCC1`, 0.017 µM.
Same read-out and setting: next, `CN(C)[C@]1(c2ccccc2)CC[C@]2(CC1)CN(c1cnc(-c3cccc(C#N)c3)nc1)C(=O)N2`: 0.013 µM; `Cn1nc(C(F)(F)F)cc1N1C[C@]2(CC[C@](c3cccc(F)c3)(N(C)C)CC2)NC1=O`: 0.004 µM; `CN(C)[C@]1(c2ccccc2)CC[C@]2(CC1)CN(c1cnc(-n3cc(C4CC4)nn3)nc1)C(=O)N2`: 0.01 µM.
As to `CN(C)[C@]1(c2ccccc2)CC[C@]2(CC1)CN(c1cnc(N)nc1)C(=O)N2`, the affinity, expressed as Ki, was 0.035 µM.
Still for that read-out and setting: in the case of `CN(C)[C@]1(c2ccccc2)CC[C@]2(CC1)CN(c1cnc(-n3ncc4ccccc43)nc1)C(=O)N2` it was 0.01 µM; in that of `CN(C)[C@]1(c2ccccc2)CC[C@]2(CC1)CN(c1cnc(NCCO)nc1)C(=O)N2`, 0.033 µM.

These data come from BindingDB's records for US10807988.
